From patent US20230414764A1, “Template Assembly by Proximity-Enhanced Reactivity via Metabolic Labeling” (The General Hospital Corporation, priority 2020, published 2023)
Read-outs that look alike come from different tables or passages of the source.

Tested on: Jurkat cells (human T lymphoma)
Format: cell-based
Description: For Examples 7-11, metabolic labeling was monitored by treatment of cultured cells with the sugar analog peracetylated N-azidoacetylmannosamine (AzNAM), followed after harvest with treatment with the bifunctional click/fluorescent compound DBCO-PEG3-FAM (DPEG-FAM). Surface azide groups resulting from the metabolic labeling process react with the DBCO group (dibenzocyclooctyne) of DPEG-FAM, and were monitored by flow cytometry.
Jurkat cells (human T lymphoma; 10^5 cells/ml) were treated with or without 100 ng/ml human interferon-beta (IFNβ), for three days in culture. 22 hr prior to harvest, cell media were supplemented with […] AzNAM or control solvent only (DMSO). After harvest and washing, cells (10^6 cells/ml) were treated with 2 mM DPEG-FAM, washed, and subjected to flow cytometric analysis. It was found (see FIGS. 20A-20D) that the geometric mean fluorescence of AzNAM-cells was increased by IFNβ treatment (a 1.4-fold enhancement relative to the untreated value). […] FIGS. 20A-20D show flow cytometric analysis of human Jurkat cells after treatment with 100 ng/ml human IFN-beta for three days, with addition of 100 μM AzNAM at 22 hr prior to harvest. Cells were treated with DPEG-FAM prior to flow analysis.
With a lowered IFNβ dose of 75 ng/ml and the same general conditions as for Example 7, a similar pattern was seen (see FIGS. 21A-21D; 1.9-fold enhancement relative to the untreated value). As in Example 7, a biphasic response in the DMSO control cells was seen, but in many circumstances the smaller observed peak with stronger fluorescence is attributable to non specific uptake of the DPEG-FAM fluor, through a partial permeabilization effect of the treatments. FIGS. 21A-21D show flow cytometric analysis of human Jurkat cells after treatment with 75 ng/ml human IFN-beta for 3 days, with addition of 100 μM AzNAM at 22 hr prior to harvest. Cells were treated with DPEG-FAM prior to flow analysis.
The human STING agonist-1 (STAG-1′; MedChemExpress LLC) was tested for Jurkat cells in a similar experimental arrangement as for Examples 7 and 8. A metabolic labeling enhancement with STAG1 was seen, though modest (see FIGS. 23A-23D; 1.2-fold enhancement relative to the untreated value). The impact on control DMSO-treated cells was minimal. FIGS. 23A-23D show flow cytometric analysis of human Jurkat cells after treatment with 50 μM STING agonist 1 (STAG1) for 3 days, with addition of 100 μM AzNAM at 22 hr prior to harvest. Cells were treated with DPEG-FAM prior to flow analysis.

[1] = Jurkat, 100 ng/ml human IFNβ 3 days

## IFNβ: human interferon-beta
Jurkat, 75 ng/ml human IFNβ 3 days
  enhancement of metabolic labeling relative to the untreated value: 1.9 fold
[1]
  enhancement of geometric mean fluorescence of AzNAM-cells relative to the untreated value: 1.4 fold
  fluorescence shift in control DMSO-treated cells compared to the AzNAM cells: reduced magnitude
Jurkats/AzNAM+IFNβ: 75 ng/ml human IFN-beta 3 days, 100 μM AzNAM 22 hr prior to harvest
  geometric mean fluorescence (GM): 385.16
Jurkats/AzNAM+IFNβ: 100 ng/ml human IFN-beta 3 days, 100 μM AzNAM 22 hr prior to harvest
  geometric mean fluorescence (GM): 150.15
Jurkats/DMSO+IFNβ: 75 ng/ml human IFN-beta 3 days, control solvent only
  geometric mean fluorescence (GM): 19.40
Jurkats/DMSO+IFNβ: 100 ng/ml human IFN-beta 3 days, control solvent only
  geometric mean fluorescence (GM): 16.66
